Laboratory results from US12310933B2, “Treatment of demyelinating disorders” (The University of Chicago, priority 2013, dated 2025).

Legend:
[1] = system: differentiating rat oligodendrocyte precursor cells (drOPCs); assay: FDA/PI (fluorescein-diacetate/propidium iodide) live/dead cell viability assay, IFN-γ challenge; assay type: cell-based; details: 5.0 μM guanabenz + 200 U/ml IFN-γ, 48 hours
Text: Example 1: guanabenz protects differentiating rat oligodendrocyte precursor cells (drOPCs) against interferon-γ induced cell death (FIG. 2A). Interferon-γ is an inflammatory cytokine that is thought to contribute to multiple sclerosis exacerbations, therefore, treatment of cultured cells of the oligodendrocyte lineage with interferon-γ provides a useful cellular model of MS-related inflammation. drOPCs were isolated and purified to >95% homogeneity from 6-7 day old Sprague-Dawley rat cortices by immunopanning as previously described (Chan et al. 2004 Neuron 43:2; 183-191). Briefly, rat cortices were extracted, diced, and digested with papain at 37° C. Cells were then triturated and resuspended in panning buffer containing insulin, then sequentially immunopanned at room temperature on three plates containing Ran-2, GalC, and O4 antibodies from hybridomal supernatant. […] Following 48 hours of treatment, media was removed and the cells were incubated in FDA/PI (fluorescein-diacetate/propidium iodide) for 3 minutes, rinsed with 1×PBS, and imaged for live/dead cell quantification. In living cells, non-fluorescent FDA is converted into fluorescein, giving off a bright green fluorescence. […] FIG. 2B illustrates the quantitation of the experiment in FIG. 2a. […]

[2] = mouse, in vivo, ip
Method: Mice were then given a final injection before serum was collected 2, 4, or 12 hours later via submandibular bleed. Immediately following blood draw, mice were perfused with 0.9% NaCl and their brains collected and weighed. […] Data represents mean±SD. FIG. 9 depicts the same data, with brain and serum concentrations expressed as μM values. […] Data represents mean±SD.

[3] = system: mice immunized with MOG35-55-specific EAE; assay: Inflammatory ear-swelling response to local injection of MOG35-55 in EAE mice; assay type: in vivo, mouse; details: 8 mg/kg daily IP PID 7 to PID 19; MOG35-55 challenge PID 17, read 48 hours later
Method: Example 9: guanabenz reduces inflammatory immune responses to myelin proteins in an in vivo mouse model of EAE (FIG. 10). Mice immunized with MOG35-55-specific EAE (as described herein) were treated with vehicle or 8 mg/kg guanabenz daily IP from PID 7 to PID 19. On PID 17, mice were challenged via a single injection of 10 μg of MOG35-55 peptide solubilized in 10 μl of 1×PBS in the dorsal surface of the left ear and 10 μg of PLP178-191 peptide in 10 μl 1×PBS in the right ear. Response was assessed 48 hours later by measuring ear thickness. […] N=8-9/group. (**p<0.005, ***p<0.0005)

N=C(N)N/N=C/c1c(Cl)cccc1Cl [guanabenz]
cell viability (green/red cell ratio, FDA/PI) [1]: increased the green/red cell ratio back to control levels
clearance from serum and brain [2]: quickly cleared in both serum and brain
mean ear swelling relative to vehicle-administered subjects [3]: about one-third
